Experimental data published in US8937088B2, “Ureas for the treatment and prevention of cancer” (Astar Biotech LLC, priority 2011, dated 2015).

Tested on: HUH7 (human hepatoma cell line)
Assay: Cell death detection, trypan blue exclusion assay, HUH7
Format: cell-based
Conditions: HUH7, 7-day treatment, 2.5 uM
Description: Biological Test 2. Cell Death Detection Using Trypan Blue Exclusion Assay.
After drug treatment, cells were harvested by trypsinization with trypsin/EDTA for 10 min at 37° C. As some apoptotic cells detached from the culture substratum into the medium, these cells were also collected by centrifugation of the medium at 1,200 rpm for 5 min. The pooled cell pellets were resuspended and mixed with trypan blue dye. After Trypan blue stain was done, cells were counted by using a light microscope and a hemocytometer. Blue dye-incorporating cells were scored as being dead. Five hundred cells from randomly chosen fields were counted, and the number of dead cells was counted and expressed as a percentage of the total number of cells counted as shown in Tables 2 to 8 below.

CNC(=O)c1cc(Oc2ccc(NC(=O)Nc3ccc(Cl)c(C(F)(F)F)c3)cc2)ccn1 [Sorafenib, reference compound]
Cell Death (%) at Tested Concentration: 2.1%
